Source: patent US20020168755A1

Target: human proTNF-α (human) (UniProt P01375)
Experiment: cell-based or functional assay

least amount of MT-MMP1 vector giving a secreted TNF-α signal by ELISA, co-transfected 293EBNA cells (pg/transfection): 6
Substance: human MT-MMP1 (from UniProt P50281 112-582) (enzyme)
